# In publication PMC5320532 (2017):
# Experiments:
# P-gp = settings: dot = substrate; collated from literature ref 74, 75, 76; cited from earlier work
# [1] = test system: freshly isolated human hepatocytes in suspension
# [2] = test system: P-gp-transfected MDCK cells; settings: dog
# [3] = test system: P-gp-transfected MDCK cells (+ elacridar); settings: dog, MDCK-MDR1
# [4] = test system: P-gp-KO (CRISPR) MDCK cells; settings: dog
# [5] = test system: mock-transfected HEK293 cells; settings: human
# [6] = test system: human hepatocytes cultured for 24 h in monolayer format
# MDCK II wild-type cells = settings: dog
structure (smiles),measurement,setting,value
COc1cc2nc(N3CCN(C(=O)c4ccco4)CC3)nc(N)c2cc1OC [Prazosin],P-gp substrate,P-gp,●
CN(CCOc1ccc(CC2SC(=O)NC2=O)cc1)c1ccccn1 (centres unmarked) [Rosiglitazone],intracellular bioavailability (Fic),[1],3.1±0.9
same,intracellular bioavailability (Fic),[2],0.65±0.13
same,intracellular bioavailability (Fic),[3],0.99±0.14
same,intracellular bioavailability (Fic),[4],1.4±0.3
same,intracellular bioavailability (Fic),[5],1.1±0.1
same,intracellular bioavailability (Fic),[6],3.9±1.2
same,intracellular bioavailability (Fic),MDCK II wild-type cells,0.81±0.20
